Test system: MCF7 human breast carcinoma cells
Assay: MTT cell viability assay, MCF7 cells
Assay type: cell-based
Conditions: 18 hours treatment
Description: The cells were contained at 37° C. in a humidified atmosphere containing 5% CO2 overnight. On Day 2, the cells were treated with the compound of interest which was dissolved in 100% ethanol. […] The control is a sample without the compound of interest.

What does the source list for CCCCCCCCCCCCC/C=C/[C@@H](O)[C@H](CO)NC(=O)NCCCCCC [Urea-C6-ceramide, (2S,3R,4E)-N-[2-(1,3-dihydroxy-4E-octadecene)]-N′-hexane-urea]?
IC50: 10 µM; effect on cell growth and proliferation (in words): potent inhibitor of cell growth and proliferation
